Earlier results as cited in patent US7141590B2, “Pharmaceutical uses and synthesis of nicotinanilide-N-oxides” (UCB SA, priority 2000, dated 2006).

Chains of the proteins cited; added tags and fusions are not shown.
UniProt P25929, whole entry: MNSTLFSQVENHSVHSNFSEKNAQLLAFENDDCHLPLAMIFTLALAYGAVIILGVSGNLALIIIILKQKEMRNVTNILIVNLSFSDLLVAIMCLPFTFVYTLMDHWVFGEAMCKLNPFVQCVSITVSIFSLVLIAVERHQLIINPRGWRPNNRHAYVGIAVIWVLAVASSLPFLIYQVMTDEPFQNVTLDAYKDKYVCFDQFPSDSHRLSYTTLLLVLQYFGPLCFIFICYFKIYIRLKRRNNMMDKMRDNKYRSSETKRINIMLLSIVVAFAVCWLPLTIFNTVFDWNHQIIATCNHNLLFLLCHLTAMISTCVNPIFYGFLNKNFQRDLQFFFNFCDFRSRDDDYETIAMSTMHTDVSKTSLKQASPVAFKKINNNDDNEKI

Molecular target: T1, human neuropeptide Y1 (NPY1) receptors (Homo sapiens, UniProt P25929)
T1 construct: SK-N-MC (human neuroblastoma) cells were used in modified HBSS pH 7.4 buffer; host or cells: SK-N-MC (human neuroblastoma) cells
Conditions: NPY1 reference data; cited from earlier work

In the case of “NPY (13–36): neuropeptide Y fragment 13–36”, the IC50 is given as 2200 nM, the Ki is given as 2100 nM and the nH is given as 1.1.
